By UniProt entry, the sequences of proteins in these tests, tags left out. Residues count along the entry.
UniProt P02710, 25-461: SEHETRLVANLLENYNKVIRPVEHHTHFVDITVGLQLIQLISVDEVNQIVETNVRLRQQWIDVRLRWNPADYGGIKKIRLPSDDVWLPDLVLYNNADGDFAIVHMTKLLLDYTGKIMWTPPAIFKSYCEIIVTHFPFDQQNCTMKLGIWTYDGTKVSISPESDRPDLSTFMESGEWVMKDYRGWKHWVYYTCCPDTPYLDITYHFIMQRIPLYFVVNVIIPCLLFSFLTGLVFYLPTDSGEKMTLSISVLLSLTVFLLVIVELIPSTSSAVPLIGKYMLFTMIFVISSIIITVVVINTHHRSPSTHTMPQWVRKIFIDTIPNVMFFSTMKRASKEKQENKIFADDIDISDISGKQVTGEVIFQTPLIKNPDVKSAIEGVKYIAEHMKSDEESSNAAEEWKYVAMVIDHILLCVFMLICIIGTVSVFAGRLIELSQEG
UniProt P02712, 25-493: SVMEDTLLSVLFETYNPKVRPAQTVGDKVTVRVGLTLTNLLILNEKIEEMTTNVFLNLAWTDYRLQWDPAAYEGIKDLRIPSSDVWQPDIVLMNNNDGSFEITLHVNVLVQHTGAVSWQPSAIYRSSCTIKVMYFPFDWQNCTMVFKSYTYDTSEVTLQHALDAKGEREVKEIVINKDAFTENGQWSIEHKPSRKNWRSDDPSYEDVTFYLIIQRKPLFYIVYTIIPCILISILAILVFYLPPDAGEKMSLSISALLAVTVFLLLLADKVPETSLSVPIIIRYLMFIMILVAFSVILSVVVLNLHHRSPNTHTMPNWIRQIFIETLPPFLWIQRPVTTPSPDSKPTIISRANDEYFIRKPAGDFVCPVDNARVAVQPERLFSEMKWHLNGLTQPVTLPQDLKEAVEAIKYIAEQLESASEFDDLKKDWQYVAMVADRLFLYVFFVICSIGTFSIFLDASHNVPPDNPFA
UniProt P02714, 18-506: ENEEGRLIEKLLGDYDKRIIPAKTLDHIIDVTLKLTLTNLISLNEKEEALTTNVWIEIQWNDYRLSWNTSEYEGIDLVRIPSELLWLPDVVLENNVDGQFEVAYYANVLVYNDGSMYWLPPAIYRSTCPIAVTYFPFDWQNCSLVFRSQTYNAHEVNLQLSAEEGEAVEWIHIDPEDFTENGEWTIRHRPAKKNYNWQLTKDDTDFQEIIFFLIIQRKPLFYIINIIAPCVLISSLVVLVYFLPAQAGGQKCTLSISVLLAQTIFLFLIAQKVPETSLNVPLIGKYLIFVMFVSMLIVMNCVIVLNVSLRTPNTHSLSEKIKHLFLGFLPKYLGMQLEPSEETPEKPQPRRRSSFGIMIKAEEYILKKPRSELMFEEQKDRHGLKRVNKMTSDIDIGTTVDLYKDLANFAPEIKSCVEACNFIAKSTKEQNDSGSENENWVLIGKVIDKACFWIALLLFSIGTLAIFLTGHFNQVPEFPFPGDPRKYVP
UniProt P02718, 22-522: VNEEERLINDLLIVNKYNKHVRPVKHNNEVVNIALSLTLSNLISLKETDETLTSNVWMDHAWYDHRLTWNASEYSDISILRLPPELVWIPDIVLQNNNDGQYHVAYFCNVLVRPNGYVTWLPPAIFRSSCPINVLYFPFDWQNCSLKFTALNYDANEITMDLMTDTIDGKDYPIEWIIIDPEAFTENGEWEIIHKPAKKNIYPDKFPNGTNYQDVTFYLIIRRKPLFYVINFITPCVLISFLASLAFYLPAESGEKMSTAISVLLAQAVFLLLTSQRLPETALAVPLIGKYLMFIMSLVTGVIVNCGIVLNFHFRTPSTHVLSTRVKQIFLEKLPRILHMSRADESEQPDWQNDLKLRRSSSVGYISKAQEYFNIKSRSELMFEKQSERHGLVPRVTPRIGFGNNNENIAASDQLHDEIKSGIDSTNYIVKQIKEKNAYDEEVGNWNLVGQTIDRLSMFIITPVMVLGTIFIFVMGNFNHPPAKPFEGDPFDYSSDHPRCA

In publication PMC6777777 (PLoS ONE, 2019):

Target: T1, nicotinic acetylcholine receptor (nAChR) from Torpedo californica (Tetronarce californica, UniProt P02710+P02712+P02714+P02718)
T1 construct: flash-frozen Torpedo electric organ was purchased from Aquatic Research Consultants (San Pedro, CA); tissue Aquatic Research Consultants (San Pedro, CA); host or cells: Torpedo electric organ; Membranes were solubilized in cholate, reconstituted in asolectin liposomes and microinjected as protein into Xenopus oocytes
Test: Two-electrode voltage clamp of oocytes injected with Torpedo nAChRs: inhibition of acetylcholine-stimulated current
Format: cell-based
Method: Sixteen hours after injection, the oocytes were clamped using a TEVC system. All ligands were dissolved in modified Barth’s solution at the indicated pH and were perfused into the chamber using a gravity-flow system. Thyroid hormones were initially dissolved in 0.1 M NaOH. […] Acetylcholine was applied to the bath surrounding the oocyte using a gravity-flow system at 10–13 mL/min. […] Each ligand perfusion lasted 60–70 seconds; after each perfusion, the bath solution was exchanged with ligand-free buffer until the current response signal had returned to baseline for at least 120 seconds before the next application of ligand(s). Data were recorded using iWorx LabScribe v1.959.

Substance: pregnenolone sulfate [PS]
- IC50 (T3/PS pH 7, T3 pH 7.2, fit Top = 100, Hill Slope = 1): 0.77 µM
- IC50 (T3/PS pH 7.5, T3 pH 7.7, fit Top = 100, Hill Slope = 1, read-out: IC50): 4.6 µM
- IC50 (T3/PS pH 8, T3 pH 8.2, fit Top = 100, Hill Slope = 1, read-out: IC50): 3.5 µM
- IC50 (T3/PS pH 8.5, T3 pH 8.7, fit Top = 100, Hill Slope = 1, read-out: IC50): 10.5 µM
- IC50 (T3/PS pH 9, T3 pH 9.2, fit Top = 100, Hill Slope = 1, read-out: IC50): 2.4 µM
- IC50 (co-applied with 30 μM acetylcholine, TEVC, read-out: IC50, inhibition of nAChR response to acetylcholine): 4.9 ± 3 µM

Where two headings read alike, the source gives them in different places.
